Values of other authors as cited in patent EP1223952B1, “METHODS FOR TREATMENT OF SOLID TUMORS AND METASTASIS BY GENE THERAPY” (Aguilar-Cordova, Carlos, Estuardo, priority 1999, dated 2001).

Settings: in vivo

Substance: leuprolide acetate [Lupron Depot]
- Elevation of SGOT (> 2 x normal): 5.4%
- Elevation of alkaline phosphatase (>1.5 x normal): 5.4%
- asthenia: 5.4%
- decreased testicular size: 5.4%
- dyspnea: 5.4%
- edema: 12.5%
- general pain: 7.1%
- hot flashes/sweats: 58.9%
- impotence: 5.4%
- nausea/vomiting: 5.4%
